The source of these data is ChEMBL document CHEMBL4033696, “Repurposing of Proton Pump Inhibitors as first identified small molecule inhibitors of endo-β-N-acetylglucosaminidase (ENGase) for the treatment of NGLY1 deficiency, a rare genetic disease” (Bioorg Med Chem Lett, 2017).

Active and inactive are the calls of the source. No cut-off for these calls is given here.

The target of the test is T1, Cytosolic endo-beta-N-acetylglucosaminidase (Homo sapiens) (UniProt Q8NFI3).
T1 sequence (whole entry): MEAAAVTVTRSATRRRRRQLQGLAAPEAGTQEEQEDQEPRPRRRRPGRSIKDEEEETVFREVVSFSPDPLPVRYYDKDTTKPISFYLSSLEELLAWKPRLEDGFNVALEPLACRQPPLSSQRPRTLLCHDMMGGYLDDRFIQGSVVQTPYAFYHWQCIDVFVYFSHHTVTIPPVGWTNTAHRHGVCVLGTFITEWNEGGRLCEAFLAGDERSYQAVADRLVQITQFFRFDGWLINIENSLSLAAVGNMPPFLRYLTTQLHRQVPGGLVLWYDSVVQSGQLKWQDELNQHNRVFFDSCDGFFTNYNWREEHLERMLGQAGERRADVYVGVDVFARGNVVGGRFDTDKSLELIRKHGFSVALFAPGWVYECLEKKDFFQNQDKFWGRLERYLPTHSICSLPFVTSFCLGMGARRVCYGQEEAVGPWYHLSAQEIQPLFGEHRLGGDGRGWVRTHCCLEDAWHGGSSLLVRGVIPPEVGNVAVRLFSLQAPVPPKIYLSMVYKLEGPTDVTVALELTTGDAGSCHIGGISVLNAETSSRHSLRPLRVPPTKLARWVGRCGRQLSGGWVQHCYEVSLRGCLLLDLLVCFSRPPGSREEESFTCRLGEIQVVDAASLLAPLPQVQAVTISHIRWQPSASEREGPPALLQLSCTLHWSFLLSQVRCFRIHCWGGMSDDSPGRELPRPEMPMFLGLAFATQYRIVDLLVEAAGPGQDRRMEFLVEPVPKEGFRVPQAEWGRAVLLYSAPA
In words: Inhibition of recombinant human C-MYC/DDK-tagged ENGase expressed in HEK293T cells at 100 uM using heat inactivated bovine ribonuclease B as substrate pretreated for 15 mins followed by substrate addition after 90 mins by SDS-PAGE analysis. The settings on record: HEK-293T. An outline of the steps: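 Recombinant human ENGase incubated with ribonuclease B substrate and test compound at 100 μM as a single-concentration screen. Reactions were then heat-inactivated and resolved on 12% SDS-PAGE as an electrophoretic mobility shift assay. Bands were stained with Coomassie blue R-250 and quantified by densitometry.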
Turning to `O=C1CC2(CCCC2)CC(=O)N1CCCCN1CCN(c2ncccn2)CC1`, the inhibition entry was “inactive”.

With `C[C@@H](CN1CC(=O)NC(=O)C1)N1CC(=O)NC(=O)C1`, the inhibition result is “inactive”.

Consider `CC(C)C[C@H](NC(=O)[C@H](Cc1ccccc1)NC(=O)c1cnccn1)B(O)O`, for which the inhibition result was “inactive”.
